Results reported in article PMC6499816, “Molecular determinants regulating selective binding of autophagy adapters and receptors to ATG8 proteins” (Nature Communications, 2019).

The chains behind the UniProt entries cited, without tags or fusion partners. Where a name states a change or a piece, a line headed by the entry shows the natural chain unless it says otherwise.
UniProt Q9BXW4: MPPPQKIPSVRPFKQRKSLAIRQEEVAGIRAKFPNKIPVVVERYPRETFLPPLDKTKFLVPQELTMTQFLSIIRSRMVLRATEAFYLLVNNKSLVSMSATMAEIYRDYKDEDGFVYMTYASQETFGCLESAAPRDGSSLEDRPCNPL
UniProt P60520, whole entry: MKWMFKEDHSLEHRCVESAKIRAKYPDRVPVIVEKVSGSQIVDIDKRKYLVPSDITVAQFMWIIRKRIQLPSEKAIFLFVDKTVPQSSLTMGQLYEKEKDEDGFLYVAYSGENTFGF
UniProt Q9H0R8, whole entry: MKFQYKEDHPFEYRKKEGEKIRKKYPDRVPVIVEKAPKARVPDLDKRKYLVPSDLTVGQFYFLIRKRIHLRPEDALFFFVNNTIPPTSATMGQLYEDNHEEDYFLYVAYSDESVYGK

How the values were obtained:
LC3A = target: T1, LC3A (Homo sapiens, UniProt Q9H492); test: Bio-layer interferometry (BLI), LIR peptide binding to LC3A; conditions: n=2 independent experiments; for Rmax (best-fit value, theoretical response maximum): non linear regression Y=Rmax*X/(Kd+X), LC3A
T1 construct: GST (followed by 3C protease site) (N); made in house; host or cells: bacteria (E. coli BL21 (DE3) pLysS is stated for the GST-ATG8 proteins of the overlay assay)
Method: (§1) For recombinant protein expression in bacteria, a modified plasmid of pGEX-6P2 (GE Healthcare) (referred to as pAL) containing an N-terminal […] followed by a 3C protease cleavage site was used.
(§2) Expression was induced by the addition of 0.5 mM IPTG at OD600 = 0.6 and cells were incubated at 25 °C overnight or at 37 °C for 5 h. Harvested cells were lysed in 50 mM Tris-HCl, pH 8.0, 500 mM NaCl, 0.1% Triton X-100, 0.4 mM 4-(2-aminoethyl)-benzenesulfonylfluoride HCl (AEBSF), and 15 µg/ml benzamidine. Fusion protein was batch adsorbed onto Glutathione-Sepharose 4B beads (GE Healthcare). After five washes with wash buffer (50 mM Tris, pH 8.0, 250 mM NaCl, 0.4 mM AEBSF, and 15 µg/ml benzamidine), fusion proteins were eluted in 50 mM Tris, pH 8.0, 2 mM L-glutathione reduced, 0.4 mM AEBSF, and 15 µg/ml benzamidine.
(§3) The biosensor tip surface immobilized with a ligand is incubated with an analyte in solution, resulting in an increase in optical thickness at the biosensor tip and a wavelength shift, which is a direct measure of the change in thickness. […] Ligand-loaded SA biosensors were then incubated with different concentrations of ATG8. All binding experiments were performed in solid-black 96-well plates containing 200 μl of solution (25 mM Tris, pH 7.5, 150 mM NaCl, 0.5 mM TCEP, 0.1% Tween-20, 1 mg/ml bovine serum albumin (BSA)) in each well at 25 °C with an agitation speed of 1000 rpm. Each measurement was repeated two to five times.
(§4) Peptides were synthesized using FMOC (fluorenylmethoxycarbonyl) solid-phase peptide chemistry by the Francis Crick Peptide Chemistry Technology Platform and are listed in Supplementary Table 2.

LC3B = target: T2, LC3B (Homo sapiens, UniProt Q9GZQ8); test: BLI, LIR peptide binding to LC3B; conditions: n=2 independent experiments; for Rmax (best-fit value, theoretical response maximum): non linear regression Y=Rmax*X/(Kd+X), LC3B
T2 construct: GST (followed by 3C protease site) (N); made in house; host or cells: bacteria (E. coli BL21 (DE3) pLysS is stated for the GST-ATG8 proteins of the overlay assay)
Method: as §1, §2, §3, §4

LC3C = target: T3, LC3C (Homo sapiens, UniProt Q9BXW4); test: BLI, LIR peptide binding to LC3C; conditions: n=2 independent experiments; for Rmax (best-fit value, theoretical response maximum): non linear regression Y=Rmax*X/(Kd+X), LC3C
T3 construct: GST (followed by 3C protease site) (N); made in house; host or cells: bacteria (E. coli BL21 (DE3) pLysS is stated for the GST-ATG8 proteins of the overlay assay)
Method: as §1, §2, §3, §4

GABARAPL2 = target: T4, GABARAPL2 (Homo sapiens, UniProt P60520); test: BLI, LIR peptide binding to GABARAPL2; conditions: for Rmax (best-fit value, theoretical response maximum): non linear regression Y=Rmax*X/(Kd+X), GABARAPL2, n=2 independent experiments
T4 construct: GST (followed by 3C protease site) (N); made in house; host or cells: bacteria (E. coli BL21 (DE3) pLysS is stated for the GST-ATG8 proteins of the overlay assay)
Method: as §1, §2, §3, §4

GABARAP K24Q = target: T5, GABARAP K24Q (Homo sapiens, UniProt O95166, K24Q); test: BLI, LIR peptide binding to GABARAP K24Q; conditions: best-fit value of BLI response; FIP200 WT LIR peptide; n=4
T5 construct: GST (followed by 3C protease site) (N); made in house
Method: as §1, §3, §4

GABARAP Y25H = target: T6, GABARAP Y25H (Homo sapiens, UniProt O95166, Y25H); test: BLI, LIR peptide binding to GABARAP Y25H; conditions: best-fit value of BLI response; FIP200 WT LIR peptide; n=4
T6 construct: GST (followed by 3C protease site) (N); made in house
Method: as §1, §3, §4

GABARAP R28K = target: T7, GABARAP R28K (Homo sapiens, UniProt O95166, R28K); test: BLI, LIR peptide binding to GABARAP R28K; conditions: best-fit value of BLI response; FIP200 WT LIR peptide; n=4
T7 construct: GST (followed by 3C protease site) (N); made in house
Method: as §1, §3, §4

GABARAP K24Q/Y25H/R28K = target: T8, GABARAP K24Q/Y25H/R28K (Homo sapiens, UniProt O95166, K24Q/R28K/Y25H); test: BLI, LIR peptide binding to GABARAP K24Q/Y25H/R28K; conditions: best-fit value of BLI response; FIP200 WT LIR peptide; n=4
T8 construct: GST (followed by 3C protease site) (N); made in house
Method: as §1, §3, §4

[1] = target: T9, GABARAP K24Q/Y25H/Q59E/F60L (Homo sapiens, UniProt O95166, F60L/K24Q/Q59E/Y25H); test: BLI, LIR peptide binding to GABARAP K24Q/Y25H/Q59E/F60L; conditions: best-fit value of BLI response; FIP200 WT LIR peptide; n=2
T9 construct: GST (followed by 3C protease site) (N); made in house
Method: as §1, §3, §4

GABARAP L55V = target: T10, GABARAP L55V (Homo sapiens, UniProt O95166, L55V); test: BLI, LIR peptide binding to GABARAP L55V; conditions: best-fit value of BLI response; FIP200 WT LIR peptide; n=4
T10 construct: GST (followed by 3C protease site) (N); made in house
Method: as §1, §3, §4

GABARAP F62K = target: T11, GABARAP F62K (Homo sapiens, UniProt O95166, F62K); test: BLI, LIR peptide binding to GABARAP F62K; conditions: best-fit value of BLI response; FIP200 WT LIR peptide; n=4
T11 construct: GST (followed by 3C protease site) (N); made in house
Method: as §1, §3, §4

GABARAP L63I = target: T12, GABARAP L63I (Homo sapiens, UniProt O95166, L63I); test: BLI, LIR peptide binding to GABARAP L63I; conditions: best-fit value of BLI response; FIP200 WT LIR peptide; n=4
T12 construct: GST (followed by 3C protease site) (N); made in house
Method: as §1, §3, §4

LC3B Q26K = target: T13, LC3B Q26K (Homo sapiens, UniProt Q9GZQ8, Q26K); test: BLI, LIR peptide binding to LC3B Q26K; conditions: best-fit value of BLI response; FIP200 WT LIR peptide; n=2
T13 construct: GST (followed by 3C protease site) (N); made in house
Method: as §1, §3, §4

LC3B H27Y = target: T14, LC3B H27Y (Homo sapiens, UniProt Q9GZQ8, H27Y); test: BLI, LIR peptide binding to LC3B H27Y; conditions: best-fit value of BLI response; FIP200 WT LIR peptide; n=2
T14 construct: GST (followed by 3C protease site) (N); made in house
Method: as §1, §3, §4

LC3B K30R = target: T15, LC3B K30R (Homo sapiens, UniProt Q9GZQ8, K30R); test: BLI, LIR peptide binding to LC3B K30R; conditions: best-fit value of BLI response; FIP200 WT LIR peptide; n=2
T15 construct: GST (followed by 3C protease site) (N); made in house
Method: as §1, §3, §4

LC3B Q26K/H27Y/K30R = target: T16, LC3B Q26K/H27Y/K30R (Homo sapiens, UniProt Q9GZQ8, H27Y/K30R/Q26K); test: BLI, LIR peptide binding to LC3B Q26K/H27Y/K30R; conditions: best-fit value of BLI response; FIP200 WT LIR peptide; n=2
T16 construct: GST (followed by 3C protease site) (N); made in house
Method: as §1, §3, §4

LC3B E62Q = target: T17, LC3B E62Q (Homo sapiens, UniProt Q9GZQ8, E62Q); test: BLI, LIR peptide binding to LC3B E62Q; conditions: best-fit value of BLI response; FIP200 WT LIR peptide; n=2
T17 construct: GST (followed by 3C protease site) (N); made in house
Method: as §1, §3, §4

LC3B Q26K/H27Y/E62Q = target: T18, LC3B Q26K/H27Y/E62Q (Homo sapiens, UniProt Q9GZQ8, E62Q/H27Y/Q26K); test: BLI, LIR peptide binding to LC3B Q26K/H27Y/E62Q; conditions: best-fit value of BLI response; FIP200 WT LIR peptide; n=2
T18 construct: GST (followed by 3C protease site) (N); made in house
Method: as §1, §3, §4

GABARAP = target: T19, GABARAP (Homo sapiens, UniProt O95166); test: BLI, LIR peptide binding to GABARAP; conditions: non linear regression Y=Rmax*X/(Kd+X), GABARAP, n=2 independent experiments
T19 construct: GST (followed by 3C protease site) (N); made in house; host or cells: bacteria (E. coli BL21 (DE3) pLysS is stated for the GST-ATG8 proteins of the overlay assay)
Method: as §1, §2, §3, §4

GABARAPL1 = target: T20, GABARAPL1 (Homo sapiens, UniProt Q9H0R8); test: BLI, LIR peptide binding to GABARAPL1; conditions: non linear regression Y=Rmax*X/(Kd+X), GABARAPL1, n=2 independent experiments
T20 construct: GST (followed by 3C protease site) (N); made in house; host or cells: bacteria (E. coli BL21 (DE3) pLysS is stated for the GST-ATG8 proteins of the overlay assay)
Method: as §1, §2, §3, §4

For `CC[C@H](C)[C@H](NC(=O)[C@@H](NC(=O)[C@H](CCC(N)=O)NC(=O)[C@H](CCC(=O)O)NC(=O)[C@@H](NC(=O)[C@H](CC(N)=O)NC(=O)[C@@H]1CCCN1C(=O)[C@H](Cc1c[nH]cn1)NC(=O)[C@@H]1CCCN1C(=O)[C@@H](NC(=O)[C@@H](NC(=O)[C@H](CCC(=O)O)NC(=O)[C@H](Cc1ccccc1)NC(=O)[C@H](CC(=O)O)NC(=O)[C@H](Cc1ccccc1)NC(=O)[C@@H](NC(=O)[C@H](Cc1c[nH]cn1)NC(=O)[C@H](C)NC(=O)[C@H](CC(=O)O)NC(=O)[C@@H](NC(=O)[C@@H](N)CO)[C@@H](C)CC)[C@@H](C)O)[C@@H](C)O)[C@@H](C)CC)[C@@H](C)CC)[C@@H](C)O)C(=O)O` [FIP200 WT], which “Rmax (best-fit value, theoretical response maximum)” value (LC3A) is on record?
The value was 2.436.

What about the “Rmax (best-fit value, theoretical response maxium)” value (LC3A; non linear regression) of the same compound?
The value was 2.436.

What about the “Rmax (best-fit value, theoretical response maximum)” value (LC3B) of the same compound?
The value was 1.272.

What about the “Rmax (best-fit value, theoretical response maxium)” value (LC3B; non linear regression) of the same compound?
The value was 1.272.

And the “Rmax (best-fit value, theoretical response maximum)” value (LC3C)?
Its value is 1.718.

And the “Rmax (best-fit value, theoretical response maxium)” value (LC3C; non linear regression)?
The value was 1.718.

What about the “Rmax (best-fit value, theoretical response maximum)” value (GABARAPL2) of the same compound?
The value was 1.304.

What about the “Rmax (best-fit value, theoretical response maxium)” value (GABARAPL2; non linear regression, n=2 independent experiments) of the same compound?
The value was 1.304.

What about the Rmax (GABARAP K24Q) of the same compound?
Its Rmax is 1.602.

What about the Rmax (GABARAP Y25H) of the same compound?
Its Rmax is 1.522.

And the Rmax (GABARAP R28K)?
Its Rmax is 1.69.

What about the Rmax (GABARAP K24Q/Y25H/R28K) of the same compound?
Its Rmax is 1.731.

And the Rmax [1]?
The Rmax was 1.278.

And the Rmax (GABARAP L55V)?
The Rmax was 1.639.

What about the Rmax (GABARAP F62K) of the same compound?
Its Rmax is 1.981.

What about the Rmax (GABARAP L63I) of the same compound?
Its Rmax is 2.187.

What about the Rmax (LC3B Q26K) of the same compound?
The Rmax was 2.107.

What about the Rmax (LC3B H27Y) of the same compound?
The Rmax was 1.594.

And the Rmax (LC3B K30R)?
Its Rmax is 1.644.

And the Rmax (LC3B Q26K/H27Y/K30R)?
Its Rmax is 2.304.

What about the Rmax (LC3B E62Q) of the same compound?
Its Rmax is 1.976.

What about the Rmax (LC3B Q26K/H27Y/E62Q) of the same compound?
The Rmax was 2.379.

For `CC[C@H](C)[C@H](NC(=O)[C@@H](NC(=O)[C@H](CCC(N)=O)NC(=O)[C@H](CCC(=O)O)NC(=O)[C@@H](NC(=O)[C@H](CC(N)=O)NC(=O)[C@@H]1CCCN1C(=O)[C@H](Cc1c[nH]cn1)NC(=O)[C@@H]1CCCN1C(=O)[C@@H](NC(=O)[C@@H](NC(=O)[C@H](CCC(=O)O)NC(=O)[C@H](Cc1ccccc1)NC(=O)[C@H](CC(=O)O)NC(=O)[C@H](Cc1ccccc1)NC(=O)[C@@H](NC(=O)[C@H](Cc1c[nH]cn1)NC(=O)[C@H](C)NC(=O)[C@H](CC(=O)O)NC(=O)[C@@H](NC(=O)[C@@H](N)CO)[C@@H](C)CC)[C@@H](C)O)[C@@H](C)CC)[C@@H](C)CC)[C@@H](C)CC)[C@@H](C)O)C(=O)O` [FIP200 T704I], which “Rmax (best-fit value, theoretical response maximum)” value (LC3A) is on record?
Its value is 2.13.

And the “Rmax (best-fit value, theoretical response maximum)” value (LC3B)?
Its value is 1.508.

What about the “Rmax (best-fit value, theoretical response maximum)” value (LC3C) of the same compound?
Its value is 2.683.

And the “Rmax (best-fit value, theoretical response maximum)” value (GABARAP)?
Its value is 2.827.

What about the “Rmax (best-fit value, theoretical response maximum)” value (GABARAPL1) of the same compound?
The value was 2.798.

And the “Rmax (best-fit value, theoretical response maximum)” value (GABARAPL2)?
The value was 2.437.
